Data on 3 substances can be found in patent US6403034B1, “Method of reducing the concentration of recalcitrant organic contamination in a soil matrix” (priority 1995, dated 2002).

The data set is described as follows: Pesticide Test 2: gaseous ozone injected into soil column. The data set is classed as physicochemical. The note with it: for Soil Column T = 75 hours / percent removed: 75 hours of 300 mL/min of 5% ozone; for Soil Column T = 0: before ozonation.

4,4′-DDD: the “Soil Column T = 75 hours” value was 15,500 μg/kg, the percent removed worked out at 70.5% and the “Soil Column T = 0” value is 52,500 μg/kg.

On to 4,4′-DDE, for which the “Soil Column T = 75 hours” value is recorded as 3,650 μg/kg, the percent removed came out at 69.6% and the “Soil Column T = 0” value is on record as 12,000 μg/kg.

For the substance 4,4′-DDT, the “Soil Column T = 75 hours” value is listed as 41,000 μg/kg, the percent removed came out at 67.2% and the “Soil Column T = 0” value is reported as 125,000 μg/kg.
